Measured values published in US10336775B2 (Asceneuron SA, priority 2014, dated 2019).

Protein sequences, listed by entry. Tags and fused reporters are not part of them. Lines headed by an entry give the natural chain unless they say otherwise; changes in a name come on top.
UniProt O60502: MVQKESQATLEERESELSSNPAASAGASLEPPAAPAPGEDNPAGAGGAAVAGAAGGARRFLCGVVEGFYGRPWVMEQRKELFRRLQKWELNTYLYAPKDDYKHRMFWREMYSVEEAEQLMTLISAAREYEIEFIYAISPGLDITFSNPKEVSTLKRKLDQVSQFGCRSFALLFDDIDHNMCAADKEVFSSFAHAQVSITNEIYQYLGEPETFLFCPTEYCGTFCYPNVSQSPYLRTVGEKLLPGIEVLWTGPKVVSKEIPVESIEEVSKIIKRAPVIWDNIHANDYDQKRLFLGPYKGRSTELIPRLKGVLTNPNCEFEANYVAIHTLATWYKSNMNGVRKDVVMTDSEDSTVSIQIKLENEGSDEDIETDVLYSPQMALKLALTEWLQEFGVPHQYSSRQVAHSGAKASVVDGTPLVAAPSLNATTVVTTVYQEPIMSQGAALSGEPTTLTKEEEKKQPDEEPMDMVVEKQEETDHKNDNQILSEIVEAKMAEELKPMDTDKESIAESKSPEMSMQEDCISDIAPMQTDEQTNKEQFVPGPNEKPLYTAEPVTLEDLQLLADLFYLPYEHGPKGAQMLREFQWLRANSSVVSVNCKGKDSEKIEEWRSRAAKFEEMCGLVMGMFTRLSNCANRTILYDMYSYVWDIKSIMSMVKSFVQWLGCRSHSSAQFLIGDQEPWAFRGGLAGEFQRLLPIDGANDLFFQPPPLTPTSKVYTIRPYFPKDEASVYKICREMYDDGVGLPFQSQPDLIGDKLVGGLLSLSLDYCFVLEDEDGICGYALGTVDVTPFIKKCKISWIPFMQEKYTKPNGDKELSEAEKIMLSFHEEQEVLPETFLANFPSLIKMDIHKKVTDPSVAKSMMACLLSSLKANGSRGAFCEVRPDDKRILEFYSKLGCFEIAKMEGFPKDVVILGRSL

Biological target: His-Tagged hOGA (human O-GlcNAcase) (Homo sapiens (Human), UniProt O60502)
Experiment: Human O-GlcNAcase enzyme inhibition assay (Example B01)
Format: biochemical
Settings: OGA enzyme inhibition assay; activity range classes defined in μM

IC50: 1 to 10 µM
Substance: N-(5-(4-(1-(4-chloro-3-methoxyphenyl)ethyl)piperazin-1-yl)-1,3,4-thiadiazol-2-yl)acetamide [Example 88]
